{"source": "patent US6627664B2", "about": "“Perylenequinones for use as sonosensitizers” (Altachem Pharma Ltd., priority 2001, dated 2003)", "key": {"cells": {"tested_on": "cells", "conditions": "without light", "from_the_text": "As used herein, “photopotentiation factor” refers to the property of the compound(s) to exert light- or sound-mediated toxicity in excess of its (their) inherent unactivated toxicity. […] Where the term “LD50” has been used above, the term “IC50” may be substituted, to address the bioassays that concern metabolic activity rather than the endpoint of lethality, loss of reproductive capability, or clonogenic death. The relative photoactivation efficiency of a compound may also be determined using a clonogenic assay, an assay that is well known to those skilled in the art.\nIn accordance with the present invention, a desirable PQP derivative is one that is non-toxic (or of low toxicity) at high drug concentrations without activation, i.e., without light (also referred to as “dark”), and/or without sound, and is toxic at low concentrations when light of the appropriate wavelength, or sound of the appropriate frequency, is applied. As is recognized by those skilled in the art, the most desirable compounds are those that provide a wide range of non-toxic doses in an unactivated state, as this characteristic provides an increased safety factor for the patient."}, "[1]": {"assay": "Light absorption properties (red spectral region, 630 nm)", "assay_type": "physicochemical", "conditions": "for A630: absorbance at 630 nm"}, "[2]": {"assay": "Singlet oxygen (1O2) yield", "assay_type": "physicochemical"}}, "note": "Marks after values point to notes of the source that are not given here."}
{"substance": "2-(N,N-diethyl-amino) ethylamine-HB [HBDD-R2]", "values": [{"measurement": "LD50 Dark", "setting": "cells", "result": ">25", "unit": "µM"}]}
{"substance": "Ethylenediamine-HB [HBED-R2]", "values": [{"measurement": "LD50 Dark", "setting": "cells", "result": ">25", "unit": "µM"}, {"measurement": "Abs. Peak in red Spectral region", "setting": "[1]", "result": "614* nm"}, {"measurement": "Extinction Coefficient (× 10^−3) (630 nm)", "setting": "[1]", "result": "12.39 × 10^−3"}, {"measurement": "A630", "setting": "[1]", "result": 1.239}, {"measurement": "Amax/solvent", "setting": "[1]; solvent DMSO", "result": "1.449/DMSO"}, {"measurement": "^1O2 Yield", "setting": "[2]", "result": 0.50}]}
{"substance": "Methylamine-HB [HBMA-IV]", "values": [{"measurement": "LD50 Dark", "setting": "cells", "result": 8.5, "unit": "µM"}, {"measurement": "Abs. Peak in red Spectral region", "setting": "[1]", "result": 640, "unit": "nm"}, {"measurement": "Extinction Coefficient (× 10^−3) (630 nm)", "setting": "[1]", "result": "2.46 × 10^−3"}, {"measurement": "A630", "setting": "[1]", "result": 0.246}, {"measurement": "Amax/solvent", "setting": "[1]; solvent CHCl3", "result": "0.246/CHCl3"}, {"measurement": "^1O2 Yield", "setting": "[2]", "result": 0.80}]}
